# Reference: PubChem BioAssay AID1645851 (National Center for Advancing Translational Sciences (NCATS), 2021)
# Amino acid sequences for entries named in this document (tags omitted). A change or cut given only in a name is not applied to a line headed by its entry.
# UniProt Q92551: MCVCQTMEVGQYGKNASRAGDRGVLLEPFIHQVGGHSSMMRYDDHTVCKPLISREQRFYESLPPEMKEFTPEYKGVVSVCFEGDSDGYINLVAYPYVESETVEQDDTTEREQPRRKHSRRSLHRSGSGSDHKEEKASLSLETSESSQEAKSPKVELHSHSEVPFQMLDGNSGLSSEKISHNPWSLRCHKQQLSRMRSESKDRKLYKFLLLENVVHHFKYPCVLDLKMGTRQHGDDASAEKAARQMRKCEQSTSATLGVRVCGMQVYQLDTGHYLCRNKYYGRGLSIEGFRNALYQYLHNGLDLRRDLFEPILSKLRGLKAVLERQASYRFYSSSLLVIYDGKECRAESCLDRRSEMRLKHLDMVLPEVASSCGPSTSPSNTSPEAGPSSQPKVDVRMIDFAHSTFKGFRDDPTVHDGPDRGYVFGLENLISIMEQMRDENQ
# The entries are a selection whose mix differs from that of the whole data set. Activity calls are given as the source filed them. Cut-off read from the data, not from the text of the source: active = activity change below about -25%; inactive = the rest.
# Target: Inositol hexakisphosphate kinase 1 (Homo sapiens) (UniProt Q92551)
# Experiment: Primary qHTS assay for small molecule inhibitors of Inositol hexaphosphate kinase 1 (IP6K1); note: series mostly up to about 58 µM
# Conditions: ADP-Glo luminescence, 2 h, hits give low values
# Description: Assay Provider: Huijun Wei, M.S., Ph.D. School of Medicine, Johns Hopkins University, Baltimore, MD Inositol hexakisphosphate kinases (IP6Ks) catalyze pyrophosphorylation of inositol hexakisphosphate (IP6) into inositol 5-diphospho-1,2,3,4,6-pentakisphosphate (IP7), which is involved in numerous areas of cell physiology including glucose homeostasis, blood coagulation and neurological development. Inhibition of IP6Ks may be effective for the treatment of Type II diabetes, thrombosis, and psychiatric disorders. We performed a quantitative high throughput screen (qHTS) of 158,410 compounds for IP6K1 inhibitors using ankinase activity ADP-Glo Max assay. […] Medicinal chemistry SAR efforts in three chemical series identified potent IP6K1 inhibitors, which were further validated in an orthogonal LC-MS IP7 analysis.
# PROTOCOL TABLE SEQUENCE No. (e.g., 1, 2, 3, etc.); […] (e.g., Cells, Incubation, Reagent, etc.); VALUE and DESCRIPTION. 1. Reagent, 3 uL of 1.3 mM ATP and 130 uM IP6 mixture in assay buffer was dispensed to a white, 1536-well assay plate. 2. Compound, 23 nL of compounds of the top two doses (57.5 uM and 19.1 uM final concentration) of the libraries were dispensed into the mixture using the Kalypsis pintool. 3. Reagent, 1 uL of 2.4 uM IP6K1 was dispensed to the assay plates. 4. Incubation, 2 hr incubation at room temperature. 5. Reagent, 2 uL of ADP-Glo reagent was added to the wells. 6. Incubation, 1 hr incubation at room temperature. 7. Reagent, 4 uL or ADP-Glo substate was added to the wells. 8. Incubation, 45 min incubation at room temperature. 9. Detection, luminescence signal was detected using the ViewLux microplate imager (PerkinElmer).
# % is set by controls: 0 for no effect and ±100 for the full control effect.
row,SMILES,activity change
1,CNCc1cc2ccccc2o1,inactive: 4.36%
2,CN(C)C1(c2ccccc2)CCC2(CC1)OCCc1c2[nH]c2ccc(F)cc12 (stereo unspecified),inactive: 12.5%
3,CN(C(=O)Cc1ccccc1)[C@H]1CC[C@@]2(CCCO2)C[C@@H]1N1CCCC1,inactive: -10.2%
4,Cc1cc([N+](=O)[O-])cc([N+](=O)[O-])c1O,inactive: 17.4%
5,CN(C(=O)Cc1ccc(Cl)c(Cl)c1)[C@H]1CCCC[C@H]1N1CCCC1,inactive: 7.72%
6,CCNC(C)Cc1ccc2c(c1)OCO2 (stereo unspecified),inactive: 4.49%
7,O=C(O[C@H]1CN2CCC1CC2)C1NCc2ccccc2[C@@H]1c1ccccc1 (stereo partly specified),inactive: -4.57%
8,CNCc1cccc(C)n1,inactive: 10.5%
9,CCn1c(=O)n([C@@H]2CCN(CC3CCCCCCC3)C[C@H]2CO)c2ccccc21,inactive: 19%
10,NC(=O)Nc1ccc([As](=O)(O)O)cc1,inactive: 8.77%
11,CN(C(=O)Cc1ccc(Cl)c(Cl)c1)[C@H]1CC[C@@]2(CCCO2)C[C@@H]1N1CCCC1,inactive: 12.7%
